{"source": "patent US20200253945A1", "about": "“DELAYED RELEASE DEFERIPRONE TABLETS AND METHODS OF USING THE SAME” (Chiesi Farmaceutici S.p.A., priority 2017, published 2020)", "origin": "cited, not measured here", "conditions": "ALS", "data": [{"molecule": "Nc1nc2ccc(OC(F)(F)F)cc2s1", "note": "[Riluzole]", "values": [{"measurement": "increase in survival", "result": "2-3 months"}]}]}
